Fluorescence (KMESF) data for 58 compounds are collected here from PubChem BioAssay AID1775 (NMMLSC, 2009).

Only a part is listed here, and it is no random draw. Active and inactive are the calls of the source. Rule as the data show it: active = fluorescence above about 47; inactive = the rest.

The assay in a line: green autofluorescence of compounds with avidin beads – biophysical, 488/530 nm, flow cytometry, artefact control, profiling panel (AID 1775). The note with it: compound fluorescence 488/530 nm, at 10 µM, stronger effect = higher value. Background: In flow cytometry, cells or beads pass a laser one at a time.
`O=[N+]([O-])c1ccc2c(c1)nnn2O`: the fluorescence (KMESF) is inactive: 3.
The figure for `CCOP1(=S)c2c(C)nn(CCC#N)c2N=C(c2ccccc2F)N1C` (stereo not drawn) is inactive: 17.
As to `O=P(Nc1nccs1)(c1ccccc1)c1nc2ccccc2s1` (stereo not drawn), the fluorescence (KMESF) is inactive: 17.
As for `O=P(Nc1nccs1)(Oc1ccccc1)Oc1ccccc1`, the figure is inactive: 9; as for `CS(=O)(=O)c1cc([N+](=O)[O-])c2no[n+]([O-])c2c1`, inactive: 4.
On to `Nc1ccccc1[As](=O)(O)c1ccccc1`, for which the fluorescence (KMESF) was inactive: 11.
As for `O=C(O)COc1ccc([As](=O)(O)O)cc1[N+](=O)[O-]`, the figure is inactive: 6; as for `Cc1ccc(NCCc2c([N+](=O)[O-])cc([N+](=O)[O-])cc2[N+](=O)[O-])cc1`, inactive: 3; as for `Nc1cccc2c([As](=O)(O)O)cccc12`, inactive: 1.
Consider `CCCOP(=S)(Nc1nc(N)cc(=O)[nH]1)OCCC`, for which the fluorescence (KMESF) is inactive: 8.
The figure for `COc1cc(C2NCCC3(OCCO3)C2(C)C)cc(OC)c1OC` (stereo not drawn) is inactive: 24.
Take `CCOP(=O)(Nc1cccc2ccccc12)OCC`: the fluorescence (KMESF) is inactive: 6.
Regarding `O=C(OC1CN2CCC1CC2)c1ccc(Cl)cc1` (stereo not drawn), the fluorescence (KMESF) was inactive: 6.
The figure for `COc1cc(C(=O)NCC2(N3CCOCC3)CCCCC2)cc(Cl)c1OC(C)C` is inactive: 23; for `O=[As](O)(O)c1cccnc1` it is inactive: 8.
The figure for `O=[As](O)(c1cccc(O)c1)c1cccc(O)c1` is inactive: 4.
The figure for `Cc1cccc(OCC(=O)OC2CN3CCC2CC3)c1` (stereo not drawn) is inactive: 33.
Take `CC(C)/C=N\N=C(\N)N[N+](=O)[O-]`: the fluorescence (KMESF) is inactive: 3.
The figure for `CN(C(=O)Cc1ccc(Cl)c(Cl)c1)[C@@H]1CCCC[C@H]1N1CCCC1` is inactive: 6; for `O=[As](O)(c1ccccc1Br)c1ccccc1Br` it is inactive: 16; for `O=P1(Nc2ccccn2)COc2ccccc2OC1` it is inactive: 16.
As to `CCOP(=O)(Nc1ccc(C)cn1)OCC`, the fluorescence (KMESF) was inactive: 10.
In the case of `Clc1n[nH]nc1-c1nn[nH][15n]1`, the fluorescence (KMESF) is inactive: 11.
The figure for `CC(C)(C)C(=O)NC(Sc1ncccn1)C(Cl)(Cl)Cl` (stereo not drawn) is inactive: 4; for `O=P1(Nc2ncccn2)COc2ccccc2OC1` it is inactive: 7.
As for `Nc1cccc([As](=O)(O)c2ccccc2)c1`, the figure is inactive: 9; as for `O=P1(Nc2ccc(Br)cn2)COc2ccccc2OC1`, inactive: 7; as for `Cc1ccc(OCC(=O)OC2CN3CCC2CC3)cc1` (stereo not drawn), inactive: 5.
The figure for `O=[As](O)(c1cccs1)c1cccs1` is inactive: 8.
As to `Cc1nn(-c2ccccc2)c2c1P(=O)(N1CCOCC1)N(C)C(c1ccccc1)=N2` (stereo not drawn), the fluorescence (KMESF) is inactive: 37.
As for `CC1CCC(C(C)C)C(OP(=O)(Nc2ccccn2)c2ccccc2)C1` (stereo not drawn), the figure is inactive: 7.
The figure for `CN(C)C1(CNC(=O)c2ccc(S(C)(=O)=O)cc2)CCCCC1` is inactive: 5.
Consider `O=C(/C=C/c1ccccc1)OC1CN2CCC1CC2` (stereo not drawn), for which the fluorescence (KMESF) was inactive: 9.
The figure for `CCOC(=O)Nc1cccc([As](=O)(O)O)c1` is inactive: 8; for `O=P(Nc1ccccn1)(c1cccc2ccccc12)c1cccc2ccccc12` it is inactive: 9.
As for `Cc1cc(SC(NC=O)C(Cl)(Cl)Cl)ncn1` (stereo not drawn), the figure is inactive: 9; as for `O=[N+]([O-])c1ccc(Nc2ccc(Oc3ccc([N+](=O)[O-])cc3[N+](=O)[O-])cc2)c([N+](=O)[O-])c1`, inactive: 6; as for `CCOC(=O)Nc1ccc([As](=O)(O)O)c(O)c1`, inactive: 6.
As for `Cc1cc(SC(NC(=O)c2ccccc2)C(Cl)(Cl)Cl)nc(C(C)C)n1` (stereo not drawn), the figure is inactive: 8; as for `CCOC(=O)c1ccc(NC(=O)C(C)(CCl)SC)cc1` (stereo not drawn), inactive: 7.
As for `CCC(C)N(CC(C)C)C(=S)SC(NC(C)=O)C(Cl)(Cl)Cl` (stereo not drawn), the fluorescence (KMESF) is inactive: 6.
The figure for `COP1(=S)c2c(C)nn(CCC#N)c2N=C(c2ccc(F)cc2)N1C` (stereo not drawn) is inactive: 18.
The figure for `O=C(COc1ccccc1)OC1CN2CCC1CC2` (stereo not drawn) is inactive: 13; for `COc1ccc(N/C(=N/P(=O)(N2CCOCC2)N2CCOCC2)N2CCOCC2)cc1` it is inactive: 25.
The figure for `Cc1c2c(nc3ccccc13)SC(C(Cl)Cl)C2` (stereo not drawn) is inactive: 5; for `O=C(OC1CN2CCC1CC2)C12CC3CC(CC(C3)C1)C2` (stereo not drawn) it is inactive: 17.
Turning to `Cc1cc(=O)[nH]c(N[N+](=O)[O-])n1`, the fluorescence (KMESF) was inactive: 26.
For the compound `COc1ccc2nc(NP(=O)(c3ccccc3)c3ccccc3)sc2c1`, the fluorescence (KMESF) is inactive: 22.
As for `COc1cc(I)ccc1[As](=O)(O)O`, the figure is inactive: 8; as for `ClCCSc1nnc(-c2cccnc2)o1`, inactive: 8; as for `CC(C)c1ccc(OP(=O)(Nc2ccccn2)Oc2ccccc2F)cc1` (stereo not drawn), inactive: 3.
The figure for `CCN(CC)C(=S)SC(NC=O)C(Cl)(Cl)Cl` (stereo not drawn) is inactive: 18; for `CC(C)NC(=O)NP(=O)(Oc1ccccc1)Oc1ccccc1` it is inactive: 8.
With `O=[N+]([O-])c1cc([N+](=O)[O-])c(-c2ccn[nH]2)s1`, the fluorescence (KMESF) was inactive: 3.
The figure for `C[As](=O)(O)c1cccc(C(=O)O)c1` is inactive: 4; for `O=[As](O)(c1ccc(O)cc1)c1ccccc1O` it is inactive: 9.
As for `Cc1ccc(OP(=O)(Nc2ccc([N+](=O)[O-])cn2)Oc2ccc(C)cc2)cc1`, the figure is inactive: 6.
The figure for `Cc1ccc2nc3c(c(C)c2c1)CC(C(Cl)Cl)S3` (stereo not drawn) is inactive: 15.
